Test results taken from patent publication US20240238300A1, “TREATMENT METHODS FOR SUBJECTS WITH CANCER HAVING AN ABERRATION IN EGFR AND/OR HER2” (TAIHO PHARMACEUTICAL CO., LTD., priority 2021, published 2024).

Legend:
[1] = system: NCI-N87 human gastric carcinoma (HER2 overexpressing) xenografts; assay: refractory T-mab/P-mab model Step I; assay type: in vivo, male nude mice (BALB/cAJcl-mu/mu); conditions: 20 mg/kg/day (each) ip Days 1, 8, 15
[2] = system: NCI-N87 tumor fragment #6, clone 3; assay: refractory T-DM1 monoclonal cell line model, comparison to DS-8201a; assay type: in vivo, male mice
Description: Refractory T-DM1 NCI-N87 human gastric carcinoma tumor fragments #6 were obtained in the same manner as described above, and then the monoclonal cell line, NCI-N87 tumor fragment #6, clone 3 was isolated by passages in vitro. The obtained cell line was implanted into BALB/cAJcl-mu/nu male mice (8.0×10^6 cells in 100 μL of PBS/mouse, subcutaneous) for the efficacy test.
The tumor volumes (TV, mm) and body weights of the mice were recorded.

[3] = system: NCI-N87 parental cell xenografts; conditions: single dosing of 1 mg/kg or more; cited from earlier work

Substance: trastuzumab [T-mab]
- RTV (mean ± SE) ([1]; Day 22 to Day 0 (Step I)): 2.5
- T/C ([1]; Step I Day 22, vs non-treatment control): 47.9%
- Number of Death ([1]; Step I Day 22): 0
- TV (mean ± SE) ([1]; Step I Day 22): 772.9 mm^3

Substance: trastuzumab deruxtecan [DS-8201a]
- antitumor effect (tumor volume) ([2]; single iv dose of 1 mg/kg): failing to inhibit tumor growth
- antitumor effect (tumor volume) ([2]; single iv dose of 10 mg/kg DS-8201a): tumor regression
- antitumor effect [3]: tumor regression
